# In US20210154272A1, “NEUROMODULATING COMPOSITIONS AND RELATED THERAPEUTIC METHODS FOR THE TREATMENT OF CANCER BY MODULATING AN ANTI-CANCER IMMUNE RESPONSE” (Flagship Pioneering Innovations V, Inc., priority 2016, published 2021):
# Key:
# primary human T cells = experiment: T cell activation and cytokine secretion assay (LEGENDplex); format: cell-based
# Procedure: Peripheral blood mononuclear cells (PBMCs) were isolated from whole blood by ficoll density separation. Briefly, blood was diluted 1:2 with 0.5 mM EDTA solution in PBS, loaded onto a Ficoll-filled Leucosep tube (Greiner Bio-One), and centrifuged for 20 minutes at 1000×g. After centrifugation, the leukocyte/PBMC layer on top of the separation medium was collected and sequentially washed three times with 0.5 mM EDTA solution in PBS. T cells were isolated from PBMCs using magnetic bead-based separation following vendor specification, e.g., Biolegend MojoSort Human CD4/CD8 Naïve T Cell Isolation Kit protocol. In brief, the PBMCs were labeled with biotinylated antibodies against cell surface receptors for cells not in the population of interest. The labeled cells are then captured by streptavidin-coated magnetic beads and removed by magnetic incubation. The uncaptured cells that flow through the magnetic separation are predominantly comprised of the population of interest, in this instance CD3+ T cells. T cells were stained with a 5 μM solution of Tag-it Violet™ dye (BioLegend) for 20 minutes protected from light. […] Supernatants were collected at 24, 48, and 72 hrs and cytokine secretion was analyzed by flow cytometry using a LEGENDplex assay (BioLegend). […] The beads were then stained and the captured cytokine composition assessed by flow cytometry.
# [1] = system: T cells in the lymph node; experiment: Lymph node remodeling by hock injection, flow cytometry of lymph node cells; design: species or system C57BL/6J mice; conditions: mouse, in vivo
# Procedure: C57BL/6J mice were injected in each hock with 50 μL of the immunostimulant CpG ODN (0.1 nmol), 504 dopaminergic agonist quinpirole (0.1 nmol) or with 254 dopaminergic antagonist (Haloperidol −48.5 nmol) followed by 25 μL quinpirole (0.1 nmol). 24 hours after hock injection, brachial lymph nodes (LN) were harvested in culture medium (RPMI+10% FBS). LNs were transferred to 24-well tissue culture plates containing 0.5 mL LN digestion buffer (RPMI, 2% FBS, collagenase D (3.3 mg/mL), and DNAse I (40 ug/mL)). LN capsules were manually opened with two syringe (26G) needles and the LNs were incubated in digestion buffer for 15 minutes. Digested LNs were filtered with a 40 μNA cell strainer and tissues were smashed with the plunger of a 5 mL syringe. Collected cells were washed in culture medium and plated for assays. Total number of viable cells were assessed by staining with viability dye eFluor 780 (eBioscience). Surface markers of various immune cell subsets were analyzed by staining the cells with antibodies for cell identity (CD3, CD4, CD8, CD19), for the inflammatory marker CD69, and the migratory marker CCR7. The cells were then assayed by flow cytometry.
structure (smiles),measurement,setting,value
CCCN1CCC[C@@H]2Cc3n[nH]cc3C[C@H]21 [quinpirole],production of the pro-survival cytokine IL-2,primary human T cells,increase
same,number of migratory phenotype CCR7+ T cells in the lymph node,[1],increased
